From patent US5451572A, “Human relaxin formulation” (Genentech, Inc., priority 1993, dated 1995)
Like-named read-outs stand apart in the source and are kept apart here.

Conditions: seven days

CC[C@H](C)[C@@H]1NC(=O)[C@H](C)NC(=O)[C@H]([C@@H](C)CC)NC(=O)[C@H](CCC(N)=O)NC(=O)[C@H](C)NC(=O)[C@H](CCCNC(=N)N)NC(=O)[C@H](C(C)C)NC(=O)[C@H](CC(C)C)NC(=O)[C@H](CCC(=O)O)NC(=O)[C@H](CCCNC(=N)N)NC(=O)CNC(=O)[C@@H](NC(=O)[C@H](CC(C)C)NC(=O)[C@H](CCCCN)NC(=O)[C@@H](NC(=O)[C@@H](NC(=O)[C@H](CCC(=O)O)NC(=O)[C@H](CCC(=O)O)NC(=O)[C@H](CCSC)NC(=O)[C@H](Cc2c[nH]c3ccccc23)NC(=O)[C@H](CO)NC(=O)[C@@H](N)CC(=O)O)C(C)C)[C@@H](C)CC)CSSC[C@@H]2NC(=O)[C@@H](NC(=O)[C@H](CCCCN)NC(=O)[C@H](CC(N)=O)NC(=O)[C@H](C)NC(=O)[C@H](CC(C)C)NC(=O)[C@H](C)NC(=O)[C@H](CO)NC(=O)[C@H](Cc3ccc(O)cc3)NC(=O)[C@H](CC(C)C)NC(=O)[C@@H]3CCC(=O)N3)CSSC[C@H](NC(=O)CNC(=O)[C@H](C(C)C)NC(=O)[C@H](Cc3c[nH]cn3)NC2=O)C(=O)N[C@@H]([C@@H](C)O)C(=O)N[C@@H](CCCCN)C(=O)N[C@@H](CCCNC(=N)N)C(=O)N[C@@H](CO)C(=O)N[C@@H](CC(C)C)C(=O)N[C@@H](C)C(=O)N[C@@H](CCCNC(=N)N)C(=O)N[C@@H](Cc2ccccc2)C(=O)N[C@H](C(=O)O)CSSC[C@@H](C(=O)NCC(=O)N[C@@H](CCSC)C(=O)N[C@@H](CO)C(=O)N[C@H](C(=O)N[C@@H](Cc2c[nH]c3ccccc23)C(=O)N[C@@H](CO)C(=O)N[C@@H](CCCCN)C(=O)N[C@@H](CCCNC(=N)N)C(=O)N[C@@H](CO)C(=O)N[C@@H](CC(C)C)C(=O)O)[C@@H](C)O)NC1=O [long relaxin]
% remaining main peak (agitated at room temperature): 98.53 ± 0.43%
% remaining main peak (control, undisturbed at room temperature): 97.84 ± 0.17%
